# From PubChem BioAssay AID624170 (National Center for Advancing Translational Sciences (NCATS), 2012)
# Sequences of proteins named here, by UniProt entry; tags and fusion partners are left off.
# UniProt O94925, whole entry: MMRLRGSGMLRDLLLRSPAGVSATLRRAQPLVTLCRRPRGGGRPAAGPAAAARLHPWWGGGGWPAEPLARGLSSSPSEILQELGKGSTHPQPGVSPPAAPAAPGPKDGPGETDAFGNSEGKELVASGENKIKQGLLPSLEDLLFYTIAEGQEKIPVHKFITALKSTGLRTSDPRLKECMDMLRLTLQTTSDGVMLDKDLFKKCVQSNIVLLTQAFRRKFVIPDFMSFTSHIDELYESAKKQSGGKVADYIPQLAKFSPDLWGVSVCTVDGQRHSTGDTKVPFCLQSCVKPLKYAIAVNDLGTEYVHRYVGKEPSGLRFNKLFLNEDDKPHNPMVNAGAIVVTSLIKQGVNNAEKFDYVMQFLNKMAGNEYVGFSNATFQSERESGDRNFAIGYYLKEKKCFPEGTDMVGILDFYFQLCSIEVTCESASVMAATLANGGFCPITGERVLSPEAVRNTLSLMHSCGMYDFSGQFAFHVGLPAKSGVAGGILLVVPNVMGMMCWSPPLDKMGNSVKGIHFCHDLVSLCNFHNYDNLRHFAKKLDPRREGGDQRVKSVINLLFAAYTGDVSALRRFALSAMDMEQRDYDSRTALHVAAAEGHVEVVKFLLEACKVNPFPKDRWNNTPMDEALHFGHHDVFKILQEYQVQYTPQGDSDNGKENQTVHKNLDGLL
# Only a part is listed here, and it is no random draw. Results filed as inconclusive are left out. The source made the active and inactive calls. The call rests on the fitted dose curve; in most records, active means well fitted inhibition curve with a large enough effect; inconclusive means small, poorly fitted or top-dose-only effect, or another doubt; inactive means no such curve, though single readings can be large or run the other way.
# Biological target: Glutaminase kidney isoform, mitochondrial (Homo sapiens) (UniProt O94925)
# Assay: qHTS for Inhibitors of Glutaminase (GLS)
# Details: GLS enzymatic activity, qHTS titration; at 45.5 µM (top of the series)
# On the % scale 0 is the no-effect control and ±100 the full control effect.
row,SMILES,"activity change, negative = inhibition"
1,CCC(=O)N(c1ccccc1)C1(COC)CCN(CCn2nnn(CC)c2=O)CC1,inactive: -3.88%
